From patent US20080132484A1, “Method for Identifying Inhibitors Using a Homology Model of Polo-Like Kinase 1” (CYCLACEL LIMITED, priority 2003, published 2008) come the findings set out here.

For the test, the target named is CDK2 (Homo sapiens, UniProt P24941). As to the kind of experiment: CDK2 inhibition. As to conditions: Table 12. In kind it is biochemical.

In turn, Purvalanol A returned an IC50 of 0.9 ± 2 nM.
